Experimental findings from patent publication US7767398B2, “Means and methods for diagnosing and treating affective disorders” (Affectis Pharmaceuticals AG, priority 2003, dated 2010) are described below.

The subject of the assay is P2X7R. It counts as in vivo, mouse. The following applies: paroxetine 28 days; immunohistochemistry. As to the method: The expression of P2X7R was further studied by immunohistochemistry of serial sections of complete mouse brains using a polyclonal antibody directed against an internal peptide of P2X7R (Santa Cruz Biotechnology). The brains from stress-free mice were shock frozen, cut into 16 μm slices and fixed with paraformaldehyde for 5 minutes. The sections were blocked for 30 minutes at room temperature with 1:10 horse serum. All antibodies were diluted in TBST buffer (Tris-buffered saline with 0.05% Tween-20). The first antibody was used in a dilution 1:200 and incubated overnight. All washes were performed with TBST buffer. As a secondary antibody, an anti-goat IgG biotinylated (Vector Laboratories) was used and detection was performed using the streptavidin-biotin-horse-radish peroxidase complex system (Vector Laboratories) in combination with diaminobencidine. Slides were counterstained with toluidine blue using standard procedures. The same procedure in the absence of the primary antibody was performed as a negative control. As a positive control to test the Preservation of the tissue was verified with an antibody specific for the protein Patched1 (Santa Cruz Biotechnology). Patched1 was used as positive control since it stains all relevant brain structures and is not affected by stress or antidepressants. Very specific staining pattern was detected, consistent with the specific subcellular localization of P2X7R in brain cells. Negative controls were completely devoid of signal.
The expression of P2X7R in the brains of mice under stress-free conditions, and mice under mild stress produced by the vehicle application, and mice under paroxetine treatment was evaluated using three different brains from each group. […] This effect was observed all along the hippocampus but was more evident in the polymorph layer near the dentate gyrus. […] Therefore, P2X7R expression is strongly regulated in two specific brain areas involved in depression and stress.
At the end of the experiment, the mice were sacrificed and the brains were examined to confirm the location and efficiency of the siRNA injections. For this purpose the brains were cut into sections and the slides were stained by immunohistochemistry using the above mentioned protocols. Brains from mice injected with the specific double stranded siRNA, with control double stranded RNA and with vehicle were examined in parallel. Under these conditions, the specific siRNA directed against P2X7R injected near the dentate gyrus induced on average an 80% inhibition of P2X7R protein expression as compared to the samples from mice injected with vehicle or with control double stranded RNA. […] This inhibition produced behavioural changes indicating a causative role for P2X7R in affective disorders.

`Fc1ccc([C@@H]2CCNC[C@H]2COc2ccc3c(c2)OCO3)cc1` [paroxetine]: the “P2X7R expression in ependymal cells” value is “No significant change”, the “P2X7R expression in the hippocampus” value was “marked stimulation above basal levels”, the “P2X7R expression in the olfactory bulb” value was “No significant change” and the “P2X7R expression in the periventricular nucleus of the hypothalamus” value was “slight inhibition”. Moreover, the “P2X7R expression in the subcommissural organ” value is given as “remained unchanged”.
